Measurements taken from patent publication US4863898A, “Amino acid chelated compositions for delivery to specific biological tissue sites” (priority 1986, dated 1989).

Set-up: species or system rats
Settings: rat, in vivo
From the text: Leucine was used as the ligand and zinc as the metal. Composition A is therefore a mixture, or at best a complex consisting of one mole of leucine (mole weight 131.17) and one more of zinc chloride. […] Composition B consisted of two moles of leucine admixed with one mole of zinc chloride to form a mixture. Composition C was formed by reacting two moles of leucine with one mole of zinc to obtain a zinc-leucine amino acid chelate having a molecular weight of about 325.82. […] Composition A contained leucine equivalent to 10 microliters of 0.76M. leucine and was adjusted to pH 9 with 20 microliters of 0.05 N NaOH. Composition B contained leucine equivalent to 20 microliters of 0.76M. leucine containing 20 microliters distilled water in lieu of pH adjustment. The pH of this solution was about 3. Composition C contained the same ingredients as Composition B except in chelated form and the pH was adjusted to 9 with 20 microliters of 0.13M Na2 CO3. The procedure of Example lI was fo lowed using three rats in each group. Upon sacrificing, blood was drawn and certain tissues excised to determine the amount of radioactive zinc which had migrated to the blood and tissues two hours post injection.

CC(C)C[C@H](N)C(=O)[O-].CC(C)C[C@H](N)C(=O)[O-].[Zn+2] [Comp. C, zinc-leucine amino acid chelate]
radioactive zinc in Brain: 2.41 cc/min/mg
